Laboratory results published in patent US12319659B2, “Selective ligand for dopamine D3 receptor, preparation method therefor, and pharmaceutical application thereof” (Shenzhen Linglan Bio-Pharmaceutical Technology Co., Ltd, priority 2017, dated 2025).

Protein sequences, listed by entry. Tags and fused reporters are not part of them.
UniProt P35462, whole entry: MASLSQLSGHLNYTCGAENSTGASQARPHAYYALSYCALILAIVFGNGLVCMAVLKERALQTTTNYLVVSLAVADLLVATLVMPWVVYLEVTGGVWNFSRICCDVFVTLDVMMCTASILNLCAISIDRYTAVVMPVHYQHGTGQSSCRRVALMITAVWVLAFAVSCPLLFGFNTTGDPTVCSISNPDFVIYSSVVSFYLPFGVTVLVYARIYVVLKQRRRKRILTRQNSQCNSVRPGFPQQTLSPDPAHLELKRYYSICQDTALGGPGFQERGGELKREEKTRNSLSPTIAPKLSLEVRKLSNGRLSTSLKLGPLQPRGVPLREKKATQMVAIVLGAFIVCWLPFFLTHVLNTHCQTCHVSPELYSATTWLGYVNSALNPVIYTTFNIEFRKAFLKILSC

Target: dopamine D3 receptor (Homo sapiens, UniProt P35462)
Conditions: arylpiperazine-phthalimide compounds at 100 nM, [3H]-sulpiride, HEK-293 cells (Table 1)

O=C1c2ccccc2C(=O)N1CCCCN1CCN(c2cccc(F)c2F)CC1 [Compound 3d, 2-(4-(4-(2,3-fluorophenyl)piperazin-1-yl)butyl)isoindoline-1,3-dione]
D3 Receptor Displacement (%): 65.4 ± 5.8%
